This is a selection; strong and weak results do not stand in their true shares. The source made the active and inactive calls.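 How the source made its calls: active means inhibition above about 21% made by adding two undisclosed values (limit read from the data); inactive means the rest.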

Amino acid sequences for entries named in this document (tags omitted).
UniProt Q99873, whole entry: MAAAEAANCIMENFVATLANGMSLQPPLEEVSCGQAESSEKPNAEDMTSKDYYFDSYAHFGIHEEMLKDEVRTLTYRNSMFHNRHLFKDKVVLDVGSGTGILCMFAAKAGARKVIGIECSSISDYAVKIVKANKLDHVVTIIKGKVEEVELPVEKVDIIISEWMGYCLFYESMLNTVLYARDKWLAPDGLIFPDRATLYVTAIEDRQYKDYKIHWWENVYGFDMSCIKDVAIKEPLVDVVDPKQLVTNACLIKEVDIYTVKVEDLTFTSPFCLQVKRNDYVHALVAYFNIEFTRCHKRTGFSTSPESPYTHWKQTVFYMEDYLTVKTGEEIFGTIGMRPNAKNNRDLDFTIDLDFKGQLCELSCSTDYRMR

The test concerns the target Protein arginine N-methyltransferase 1 (Homo sapiens) (UniProt Q99873). As to the kind of experiment: PRMT1 methyltransferase inhibitors, primary screen, biochemical, fluorescence polarization (AID 652257). The conditions noted are these: recombinant PRMT1, activity-based probe fluorescence polarization; at 2.79 µM; active compounds read high.
Consider `COc1cc(OC)c(C(=O)NCC2(N(C)C)CCCCC2)cc1OC`, for which the inhibition is inactive: -1.74%.
For `O=C(NCC1(N2CCCCC2)CCCCC1)c1cccc(C(F)(F)F)c1`, the inhibition was inactive: -1.86%.
In the case of `CCCCn1nnnc1C(c1cccc2ccccc12)N1CCC(n2c(=O)[nH]c3ccccc32)CC1` (configuration not stated), the inhibition was inactive: 1.83%.
In the case of `CN1CCN(CCOC(=O)C(O)(c2ccccc2)c2ccccc2)CC1`, the inhibition is inactive: -0.62%.
Consider `CC(C)c1ccc(C(=O)NCC2(N3CCOCC3)CCCCC2)cc1`, for which the inhibition is inactive: 0.71%.
Turning to `COc1ccc(NC2CCN(C(=O)OC(C)(C)C)CC2)cc1`, the inhibition is inactive: 6.27%.
Next, `COc1cc(C(=O)NCC2(N3CCCCC3)CCCCC2)ccc1OC(F)F`: inactive: -0.23%; `O=C(NCC1(N2CCOCC2)CCCCC1)c1cc(=O)[nH]c2ccccc12`: inactive: 6.87%.
On to `O=C(NCC1(N2CCCCC2)CCCCC1)c1ccc(OC(F)F)cc1`, for which the inhibition was inactive: 0.01%.
As to `CC(C)(C)n1nnnc1C(c1ccccc1OC(F)(F)F)N1CCC(n2c(=O)[nH]c3ccccc32)CC1` (configuration not stated), the inhibition is inactive: -2.8%.
For the molecule `CSc1ccc(C(=O)NCC2(N3CCOCC3)CCCCC2)cc1`, the inhibition was inactive: -2.72%.
Turning to `O=C(NCC1(N2CCCCC2)CCCCC1)c1cccc([N+](=O)[O-])c1`, the inhibition is inactive: -5.95%.
Take `N#CC1(Nc2ccccc2)CCN(CCc2ccccc2)CC1`: the inhibition was inactive: -2.26%.
As to `O=c1[nH]c2ccccc2n1C1CCN(C(c2ccccc2OC(F)(F)F)c2nnnn2C2CCCC2)CC1` (configuration not stated), the inhibition was inactive: 2.97%.
Turning to `CCN1CCC(Nc2ccc(Cl)cc2)CC1`, the inhibition was inactive: 3.27%.
On to `O=c1[nH]c2ccccc2n1C1CCN(C(c2ccccc2)c2nnnn2C2CCCCC2)CC1` (configuration not stated), for which the inhibition was inactive: 4.61%.
For the molecule `O=c1[nH]c2ccccc2n1C1CCN(C(c2cccc3ccccc23)c2nnnn2C2CCCC2)CC1` (configuration not stated), the inhibition was inactive: -3.09%.
With `COc1cc(C(=O)NCC2(N(C)C)CCCCC2)ccc1OC(F)F`, the inhibition is inactive: 0.82%.
Regarding `CCOC(=O)N1CCC(Nc2cccc(C)c2)CC1`, the inhibition was inactive: 4.02%.
For `CCOc1ccc(C)cc1CN(CCCl)CCCl`, the inhibition was inactive: -0.62%.
Next, `O=C1CCN(Cc2ccccc2)CC1`: inactive: 1.92%.
Take `CC(C)(C)n1nnnc1C(c1ccccc1)N1CCC(n2c(=O)[nH]c3ccccc32)CC1` (configuration not stated): the inhibition is inactive: -2.93%.
Turning to `COc1ccc(NC2CCN(CCc3ccccc3)CC2)c(OC)c1`, the inhibition was inactive: 3.1%.
`CCOC(=O)N1CCC(Nc2ccc(F)cc2)CC1`: the inhibition was inactive: 1.62%.
As to `O=C(NCC1(N2CCCCC2)CCCCC1)c1ccc(F)cc1`, the inhibition was inactive: -3.46%.
Next, `O=P1(N(CCCl)CCCl)SCCCS1`: inactive: 1.56%; `CCCCn1nnnc1C(c1cc2ccccc2o1)N1CCC(n2c(=O)[nH]c3ccccc32)CC1` (configuration not stated): inactive: -3.17%.

Values taken from PubChem BioAssay AID652257 (The Scripps Research Institute Molecular Screening Center, 2013).
